{
  "source": "patent US20120071401A1",
  "about": "“AMYLIN AGONIST COMPOUNDS FOR ESTROGEN-DEFICIENT MAMMALS” (Amylin Pharamaceuticals, Inc., priority 2009, published 2012)",
  "assay": "Body weight in SHAM and OVX female rats infused with further amylin agonists (Example 4)",
  "format": "in vivo, rat",
  "details": "2 μg/kg/day infusion",
  "source_text": "Female obesity-prone rats (n=36; CRL:CD-OP, Charles River, Wilmington, Mass.) were pre-fattened for approximately 4 months on 32% kcal/fat purified high fat diet (D12366B, Research Diets, New Brunswick, N.J.) to induce obesity in this model. Rats were then weight-matched (mean body weight 311±4 g) and subjected to either bilateral ovariectomy surgery (OVX; n=24), or sham surgery (SHAM; n=12). Rats were allowed approximately 3 weeks to recover from surgery, and after one week recovery a cohort of the OVX group (n=12) began to receive estrogen replacement (OVX+E; 2 ug β-estradiol (Sigma-Aldrich, St Louis, Mo.) in peanut oil subcutaneously every four days). […] Food intake and body weight were measured weekly. Body composition was assessed on day −1 and at termination by NMR (Echo Medical Systems, Houston, Tex.). On day 28 animals were euthanized by isoflurane overdose and cardiac blood collected.\nFemale obesity-prone rats were treated as described above in Example 3 to generate another set of SHAM, OVX, and OVX+E rats. Each group of rats was administered either vehicle or one of the following amylin agonists: 50 μg/kg/day of SEQ ID NO: 20; 2 μg/kg/day of SEQ ID NO: 137; or 5 μg/kg/day of SEQ ID NO: 142. […]",
  "data": [
    {"sequence": "KCNTATCVLGRLSQELHRLQTYPRTNTGSNTY [SEQ ID NO: 137]", "values": [
      {"measurement": "Weight loss in OVX rats relative to SHAM rats", "result": "either enhanced similar weight loss"}
    ]}
  ]
}
